ChEMBL document CHEMBL4402579, “Identification of Potent In Vivo Autotaxin Inhibitors that Bind to Both Hydrophobic Pockets and Channels in the Catalytic Domain” (J Med Chem, 2020)

Biological target: Autotaxin (Homo sapiens, UniProt Q13822)
Assay: Inhibition of ATX (unknown origin) expressed in human HEK293 cells using TG-mTMP as substrate after 2 hrs by fluorescence based plate reader assay

Q: Which IC50 does the source give for Cc1nc2ccccn2c(=O)c1Cc1ccc(Cl)cc1 here?
A: 300 nM

Q: For CCCCCCCN/C=C1\C(=O)N(c2ccc(F)cc2)C(=O)N=C1O, which IC50 is on record?
A: 250 nM

Q: CCN1CCN(C2=NC(=O)/C(=C/c3ccc(Cl)cc3)S2)CC1 was tested. Which IC50 did it give?
A: 420 nM
